Experiment [1] has as its target T1, HG67 (Homo sapiens, UniProt Q969V1).
T1 construct: expressed in transfected cells; host or cells: HEK-293T, transient
Description: Aequorin assay in HEK293/aeq17/Gα15 cells transfected with HG67. The following applies: read-out: EC50 for HG67 in the aequorin assay, two days post transfection. The experiment is classed as cell-based. The text has this: The complete coding sequence of HG67 cloned in pCR3.1. (Invitrogen, Carlsbad, Calif., USA), was subcloned into pIRESpuromycin (Clontech, Inc., Palo Alto, Calif., USA). Clones were confirmed by DNA sequencing.
The HEK293/aeq17 cell line was employed to measure activity. (Button and Brownstein, 1993, Cell Calcium, 14:663-671.) The complete coding sequence of mouse promiscuous G protein Gα15 was cloned into the vector pIRES/zeocin (Clontech, Palo Alto, Calif., USA). The resulting plasmid was transfected into HEK293/aeq17 cells using Lipofectamine (GIBCO-BRL, Gaithersburg, Md., USA) and selected with zeocin. Individual stable colonies were isolated and tested for coupling of various receptors. […]
HEK/293/aeq17/Gα15 were grown in Dulbecco's Modified Medium (DMEM, GIBCO-BRL, Gaithersburg, Md., USA) +10% fetal bovine serum (heat inactivated), 1 mM sodium pyruvate, 500 μg/ml Geneticin, 200 μg/ml zeocin, 100 μg/ml streptomycin, 100 units/ml penicillin. […] The cell density was determined by counting with a hemacytometer and adjusted to 500,000 cells/ml in ECB.
Human MCH was diluted in ECB into 2× concentrates using 5-fold serial dilutions, and aliquoted into assay plates in triplicates at 0.1 ml/well. The cell suspension was injected at 0.1 ml/well, read and integrated for a total of 400 readings using a luminometer (Luminoskan Ascent, Labsystems Oy, Helsinki, Finland). […]

Protein sequences, listed by entry. Tags and fused reporters are not part of them. Lines headed by an entry give the natural chain unless they say otherwise; changes in a name come on top.
UniProt Q969V1: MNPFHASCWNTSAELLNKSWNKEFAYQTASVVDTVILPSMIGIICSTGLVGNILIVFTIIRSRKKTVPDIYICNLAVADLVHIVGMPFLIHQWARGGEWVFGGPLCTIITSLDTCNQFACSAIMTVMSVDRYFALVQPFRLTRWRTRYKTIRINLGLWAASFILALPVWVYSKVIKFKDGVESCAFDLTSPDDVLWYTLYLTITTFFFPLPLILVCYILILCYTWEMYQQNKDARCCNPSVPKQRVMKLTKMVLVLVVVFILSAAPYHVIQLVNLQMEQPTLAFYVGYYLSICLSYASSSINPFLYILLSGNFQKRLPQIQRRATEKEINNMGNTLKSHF

The target of experiment [2] is T1, HG67. Kind of experiment: Intracellular calcium ([Ca2+]i) measurement with fura-2 in HEK293T cells transiently expressing HG67. Type of experiment: cell-based. The following applies: read-out: EC50 of increase in intracellular calcium levels; HEK293T cells transiently expressing HG67, fura-2. The text has this: The entire coding sequence of human HG67 was cloned into BamHI -NotI site of pEF1/V5-HisB plasmid vector (Invitrogen, Carlsbad, Calif.). The resultant construct was transfected into HEK-293T cells using Effectene (Qiagen, Hilden, Germany) or LipofectAmine PLUS (Life Technologies) according to the manufacture's instructions. Human embryonic kidney cells constitutively expressing SV40 large T antigen (HEK-293T) were maintained in D-MEM/F-12 medium (Life Technologies, Rockville, Md.) supplemented with 10% fetal bovine serum, 100 units/ml penicillin-G and 100 μg/ml streptomycin at 37° C. with 5% CO2 in a humidified atmosphere.
The intracellular calcium ion concentration ([Ca^2+]i) was measured fluorometrically using a Ca^2+-sensitive fluorescent dye, fura-2. […] Five microliters of dimethyl sulfoxide (DMSO) solution of MCH (Peptide Institute, Osaka, Japan) or [Phe^13, Leu^19]-MCH (Neosystem Laboratories, Strasbourg, France) was added into the cell suspension, and fluorescent intensity at an emission wavelength of 500 nm and excitation wavelengths of 340 and 380 nm was monitored with a CAF-110 intracellular ion analyzer (JASCO, Tokyo, Japan).
In general terms: A change in cytosolic calcium serves as a functional read-out for many receptors and channels.

As usually defined, the EC50 is the midpoint of the concentration-response curve.

Regarding Melanin-concentrating hormone [MCH], the EC50 in experiment [1] was determined as 26 nM; in experiment [2], 0.02 nM.

The values above are taken from US6593108B1, “Nucleic acid molecule encoding a melanin-concentrating hormone receptor 2 polypeptide” (priority 1999, dated 2003).
